Test results taken from paper PMC12606464, “Investigating NFE2L1 activators for targeted protein aggregate clearance: a follow-up study” (RSC Medicinal Chemistry, 2025).

Tested on: SNCA-EGFP
Assay: SNCA-EGFP degradation in SH-SY5Y cells
Type: cell-based, human
Procedure: This reporter is prone to aggregation because of its slow protein turnover. To assess compound efficacy, we measured the fluorescence signal of GFP-tagged synuclein within aggregates.
The GFP fluorescence signal was then normalized to that of the DMSO control and the cell number. The experiment was performed in at least five biological replicates. Statistical analysis was performed using paired t-tests with Holm–Šídák correction for multiple comparisons (α = […]
SH-SY5Y cells stably expressing SNCA-EGFP were seeded on a plate and allowed to […]
tadalafil (5 µM), or RUN compounds at a concentration of 1 µM or treated with an equivalent volume of DMSO dissolved in buffer as a vehicle control. The treatment was performed for 16 hours and then fluorescence was measured. The GFP signal intensity was normalized to both the DMSO control and the cell count.

For `O=[N+]([O-])c1ccc(-c2nc(-c3ccncc3)c(-c3ccc(F)cc3)[nH]2)cc1` [PD169316, reference compound], which “EGFP-SNCA aggregation (GFP signal)” value is on record?
The value was “reduction”.
